Test results published in patent US6696409 (PRINCE OF WALES MEDICAL RESEARCH INSTITUTE LIMITED POWMR, dated 2004).

Protein sequences, listed by entry. Tags and fused reporters are not part of them. Lines headed by an entry give the natural chain unless they say otherwise; changes in a name come on top.
UniProt P49146, whole entry: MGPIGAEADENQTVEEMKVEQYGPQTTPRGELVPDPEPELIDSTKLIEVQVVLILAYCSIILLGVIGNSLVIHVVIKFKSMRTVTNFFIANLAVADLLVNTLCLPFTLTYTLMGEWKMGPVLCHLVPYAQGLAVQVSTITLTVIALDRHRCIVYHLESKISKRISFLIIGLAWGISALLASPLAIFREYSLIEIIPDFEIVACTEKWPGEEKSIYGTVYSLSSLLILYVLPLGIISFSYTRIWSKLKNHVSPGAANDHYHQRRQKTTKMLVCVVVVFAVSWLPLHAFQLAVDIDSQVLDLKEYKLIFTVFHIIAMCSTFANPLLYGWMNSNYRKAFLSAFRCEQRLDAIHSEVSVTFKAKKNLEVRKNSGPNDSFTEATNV

How the values were obtained:
[1] = biological target: T1, human neuropeptide Y Y2 receptor on SMS-MSN cells (human, UniProt P49146 1-381); assay: competition with 30 pM [125I]NPY on SMS-MSN cells (human Y2), filtration
T1 construct: whole, on cells; also called NPY Y2 receptor; SMS-MSN (Y2)

[2] = biological target: Y2-like receptors in anaesthetised rats (rat); assay: cell-based or functional assay

B1: AcNPY24-36 (peptide, UniProt P01303 52-64, looked up)
peptide: LRHYINLITRQRY
modifications: N-terminal acetyl (Ac); C-terminal amide
notes: range 24-36; Residues 24-36 count on mature NPY, not on the precursor entry
With B1 the IC50 [1] was 0.5 nM and the “EC50 of the change in pulse interval (PI %), vagal stimulation in anaesthetised rats” value [2] was 3.98 nmol.
